This assay has as its target CREB-binding protein (Homo sapiens, UniProt Q92793). As to the kind of experiment: Inhibition of His tagged recombinant CBP (unknown origin) by TR-FRET assay. The procedure, abridged: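 Recombinant His-tagged bromodomains purified by Ni affinity, tag removed with thrombin, checked by mass spectrometry. Assay is TR-FRET competition against a biotinylated small-molecule ligand. Normalized inhibition vs concentration fit to 4-parameter Hill equation; […] for optimization.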
On the technique in general: TR-FRET usually uses a lanthanide donor and a delayed reading to cut background.

Sequences of proteins named here, by UniProt entry; tags and fusion partners are left off.
UniProt Q92793, whole entry: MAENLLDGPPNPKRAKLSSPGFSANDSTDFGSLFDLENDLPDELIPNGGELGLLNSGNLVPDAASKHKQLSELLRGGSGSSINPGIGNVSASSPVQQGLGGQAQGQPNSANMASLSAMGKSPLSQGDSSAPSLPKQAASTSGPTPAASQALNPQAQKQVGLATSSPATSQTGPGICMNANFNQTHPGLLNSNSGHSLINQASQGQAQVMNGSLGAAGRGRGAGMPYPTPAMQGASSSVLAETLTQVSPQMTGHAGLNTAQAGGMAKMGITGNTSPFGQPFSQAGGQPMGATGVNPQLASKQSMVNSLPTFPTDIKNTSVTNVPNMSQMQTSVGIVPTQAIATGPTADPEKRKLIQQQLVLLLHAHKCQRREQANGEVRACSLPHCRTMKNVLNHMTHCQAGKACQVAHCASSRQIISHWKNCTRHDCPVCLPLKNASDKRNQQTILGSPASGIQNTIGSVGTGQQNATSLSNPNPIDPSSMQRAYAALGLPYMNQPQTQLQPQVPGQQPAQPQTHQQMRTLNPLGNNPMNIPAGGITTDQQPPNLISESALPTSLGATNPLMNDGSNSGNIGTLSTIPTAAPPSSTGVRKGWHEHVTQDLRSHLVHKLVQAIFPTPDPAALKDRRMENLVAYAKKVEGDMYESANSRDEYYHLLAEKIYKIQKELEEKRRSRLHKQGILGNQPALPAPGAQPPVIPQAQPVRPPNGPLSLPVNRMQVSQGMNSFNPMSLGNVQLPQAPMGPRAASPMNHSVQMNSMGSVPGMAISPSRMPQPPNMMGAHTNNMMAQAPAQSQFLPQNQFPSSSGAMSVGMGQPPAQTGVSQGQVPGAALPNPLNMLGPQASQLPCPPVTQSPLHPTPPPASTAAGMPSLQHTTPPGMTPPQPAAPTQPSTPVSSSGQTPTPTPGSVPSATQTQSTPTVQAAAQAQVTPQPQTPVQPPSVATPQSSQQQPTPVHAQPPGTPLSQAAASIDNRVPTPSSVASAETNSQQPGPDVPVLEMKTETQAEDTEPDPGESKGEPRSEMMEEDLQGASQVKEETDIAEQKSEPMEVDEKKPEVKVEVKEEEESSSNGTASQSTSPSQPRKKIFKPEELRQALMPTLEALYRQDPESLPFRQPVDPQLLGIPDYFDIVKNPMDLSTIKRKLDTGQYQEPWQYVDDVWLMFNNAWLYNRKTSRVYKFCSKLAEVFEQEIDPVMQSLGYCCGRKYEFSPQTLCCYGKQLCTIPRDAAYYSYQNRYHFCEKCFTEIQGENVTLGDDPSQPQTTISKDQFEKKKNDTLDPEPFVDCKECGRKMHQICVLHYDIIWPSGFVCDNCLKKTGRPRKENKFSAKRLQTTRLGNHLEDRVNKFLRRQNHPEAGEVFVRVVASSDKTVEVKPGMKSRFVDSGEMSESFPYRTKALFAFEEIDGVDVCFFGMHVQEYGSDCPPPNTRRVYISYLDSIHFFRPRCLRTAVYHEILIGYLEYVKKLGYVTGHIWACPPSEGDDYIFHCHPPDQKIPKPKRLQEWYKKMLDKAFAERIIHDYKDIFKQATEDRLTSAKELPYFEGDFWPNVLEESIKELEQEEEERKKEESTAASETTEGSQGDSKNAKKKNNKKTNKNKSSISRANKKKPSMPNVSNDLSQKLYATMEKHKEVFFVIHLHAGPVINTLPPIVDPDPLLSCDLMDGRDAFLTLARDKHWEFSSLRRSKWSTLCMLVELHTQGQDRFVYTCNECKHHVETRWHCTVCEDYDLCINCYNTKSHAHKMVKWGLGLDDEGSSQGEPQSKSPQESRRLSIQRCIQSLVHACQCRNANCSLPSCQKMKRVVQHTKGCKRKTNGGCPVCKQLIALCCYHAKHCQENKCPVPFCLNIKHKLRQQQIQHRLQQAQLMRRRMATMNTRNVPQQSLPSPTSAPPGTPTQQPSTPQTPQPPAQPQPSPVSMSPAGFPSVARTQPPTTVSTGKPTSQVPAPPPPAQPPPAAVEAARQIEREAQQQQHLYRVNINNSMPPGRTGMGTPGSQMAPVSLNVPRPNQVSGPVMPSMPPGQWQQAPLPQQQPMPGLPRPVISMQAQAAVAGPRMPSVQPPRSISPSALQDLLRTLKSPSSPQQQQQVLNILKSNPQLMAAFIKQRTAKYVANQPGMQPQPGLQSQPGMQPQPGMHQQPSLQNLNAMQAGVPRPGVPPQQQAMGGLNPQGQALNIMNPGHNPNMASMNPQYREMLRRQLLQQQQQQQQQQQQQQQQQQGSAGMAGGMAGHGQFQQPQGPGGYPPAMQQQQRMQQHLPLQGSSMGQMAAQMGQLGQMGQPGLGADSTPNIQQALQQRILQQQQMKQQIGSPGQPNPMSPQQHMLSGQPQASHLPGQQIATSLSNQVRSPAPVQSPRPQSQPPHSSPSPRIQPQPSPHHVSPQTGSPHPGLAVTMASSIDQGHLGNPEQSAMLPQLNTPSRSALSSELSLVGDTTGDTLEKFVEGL

Usually IC50 stands for the concentration that gives 50% inhibition. As to `C[C@H]1Nc2c(cccc2N2CCCc3cc(-c4cnn(C)c4)c(C(F)F)cc32)NC1=O`, the half-maximal inhibitory concentration (IC50) is 61 nM.

For the origin of these results see ChEMBL document CHEMBL4028905, “A Unique Approach to Design Potent and Selective Cyclic Adenosine Monophosphate Response Element Binding Protein, Binding Protein (CBP) Inhibitors” (J Med Chem, 2017).
